Source: the supplement of paper PMC5998384

Key:
[1] = tested on: HeLa Kyoto; test: solubility in G1/S (NP-40 vs SDS abundance) (log2 ratio); higher = more soluble; details: cell cycle stage: G1/S
[2] = tested on: HeLa Kyoto; test: melting temperature (median over replicates), in situ; higher = more thermally stable
[3] = tested on: HeLa Kyoto; test: thermal stability score vs G1/S (z-score of summed log2 fold changes over temperatures); higher = more thermally stable than in G1/S
[4] = tested on: HeLa Kyoto; test: solubility change mitosis vs G1/S (difference of NP-40 vs SDS log2 ratios) (log2 ratio difference); higher = more soluble in mitosis
[5] = cell cycle stage: early G1 (4.5 h after nocodazole release)
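For melting temperature (median over replicates), in situ in this document: HeLa Kyoto cells synchronized by double thymidine or nocodazole block, proteins quantified by TMT10plex mass spectrometry, three independent biological replicates.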
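For solubility change mitosis vs G1/S (difference of NP-40 vs SDS log2 ratios) in this document: synchronized HeLa Kyoto cells (double thymidine block for G1/S, nocodazole release for mitosis), protein amounts in NP-40 versus SDS lysates quantified by mass spectrometry, three biological replicates.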
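For solubility in G1/S (NP-40 vs SDS abundance) in this document: HeLa Kyoto cells arrested at G1/S by double thymidine block, proteins quantified by TMT10plex mass spectrometry in mild NP-40 versus SDS extracts, three biological replicates.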
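For thermal stability score vs G1/S (z-score of summed log2 fold changes over temperatures) in this document: synchronized HeLa Kyoto cells, proteins quantified by TMT10plex mass spectrometry, three biological replicates, mitosis taken 0.5 h after nocodazole release, G1/S directly after double thymidine block.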

Question: What does the source list for “MKETDREAVATAVQRVAGMLQRPDQLDKVEQYRRREARKKASVEARLKAAIQSQLDGVRTGLSQLHNALNDVKDIQQSLADVSKDWRQSINTIESLKDVKDAVVQHSQLAAAVENLKNIFSVPEIVRETQDLIEQGALLQAHRKLMDLECSRDGLMYEQYRMDSGNTRDMTLIHGYFGSTQGLSDELAKQLWMVLQRSLVTVRRDPTLLVSVVRIIEREEKIDRRILDRKKQTGFVPPGRPKNWKEKMFTILERTVTTRIEGTQADTRESDKMWLVRHLEIIRKYVLDDLIVAKNLMVQCFPPHYEIFKNLLNMYHQALSTRMQDLASEDLEANEIVSLLTWVLNTYTSTEMMRNVELAPEVDVGTLEPLLSPHVVSELLDTYMSTLTSNIIAWLRKALETDKKDWVKETEPEADQDGYYQTTLPAIVFQMFEQNLQVAAQISEDLKTKVLVLCLQQMNSFLSRYKDEAQLYKEEHLRNRQHPHCYVQYMIAIINNCQTFKESIVSLKRKYLKNEVEEGVSPSQPSMDGILDAIAKEGCSGLLEEVFLDLEQHLNELMTKKWLLGSNAVDIICVTVEDYFNDFAKIKKPYKKRMTAEAHRRVVVEYLRAVMQKRISFRSPEERKEGAEKMVREAEQLRFLFRKLASGFGEDVDGYCDTIVAVAEVIKLTDPSLLYLEVSTLVSKYPDIRDDHIGALLAVRGDASRDMKQTIMETLEQGPAQASPSYVPLFKDIVVPSLNVAKLLK [EXOC3]”?
Answer: solubility in G1/S (log2) [1]: 0.114; melting temperature ([2]; cell cycle stage: G1/S): 49.5 °C; melting temperature ([2]; cell cycle stage: mitosis): 49.6 °C; thermal stability score [3, 5]: 0.262; thermal stability score ([3]; cell cycle stage: mitosis): 0.647; solubility change mitosis (log2) [4]: -0.149

Question: With “MPPKRNEKYKLPIPFPEGKVLDDMEGNQWVLGKKIGSGGFGLIYLAFPTNKPEKDARHVVKVEYQENGPLFSELKFYQRVAKKDCIKKWIERKQLDYLGIPLFYGSGLTEFKGRSYRFMVMERLGIDLQKISGQNGTFKKSTVLQLGIRMLDVLEYIHENEYVHGDIKAANLLLGYKNPDQVYLADYGLSYRYCPNGNHKQYQENPRKGHNGTIEFTSLDAHKGVALSRRSDVEILGYCMLRWLCGKLPWEQNLKDPVAVQTAKTNLLDELPQSVLKWAPSGSSCCEIAQFLVCAHSLAYDEKPNYQALKKILNPHGIPLGPLDFSTKGQSINVHTPNSQKVDSQKAATKQVNKAHNRLIEKKVHSERSAESCATWKVQKEEKLIGLMNNEAAQESTRRRQKYQESQEPLNEVNSFPQKISYTQFPNSFYEPHQDFTSPDIFKKSRSPSWYKYTSTVSTGITDLESSTGLWPTISQFTLSEETNADVYYYRIIIPVLLMLVFLALFFL [VRK2]” as the sequence, how does the “solubility in G1/S (log2)” value [1] read?
Answer: The value was -0.364.

Question: What about the melting temperature ([2]; cell cycle stage: G1/S) of the same sequence?
Answer: The melting temperature was 51.1 °C.

Question: What about the melting temperature ([2]; cell cycle stage: mitosis) of the same sequence?
Answer: The melting temperature was 51 °C.

Question: What about the thermal stability score [3, 5] of the same sequence?
Answer: Its thermal stability score is 0.552.

Question: What about the thermal stability score ([3]; cell cycle stage: mitosis) of the same sequence?
Answer: The thermal stability score was -0.127.

Question: And the “solubility change mitosis (log2)” value [4]?
Answer: Its value is 0.257.

Question: Which “solubility in G1/S (log2)” value [1] does the source give for “MRAEGLGGLERFCSPGKGRGLRALQPFQVGDLLFSCPAYAYVLTVNERGNHCEYCFTRKEGLSKCGRCKQAFYCNVECQKEDWPMHKLECSPMVVFGENWNPSETVRLTARILAKQKIHPERTPSEKLLAVKEFESHLDKLDNEKKDLIQSDIAALHHFYSKHLGFPDNDSLVVLFAQVNCNGFTIEDEELSHLGSAIFPDVALMNHSCCPNVIVTYKGTLAEVRAVQEIKPGEEVFTSYIDLLYPTEDRNDRLRDSYFFTCECQECTTKDKDKAKVEIRKLSDPPKAEAIRDMVRYARNVIEEFRRAKHYKSPSELLEICELSQEKMSSVFEDSNVYMLHMMYQAMGVCLYMQDWEGALQYGQKIIKPYSKHYPLYSLNVASMWLKLGRLYMGLEHKAAGEKALKKAIAIMEVAHGKDHPYISEIKQEIESH [SMYD2]” here?
Answer: The value was -0.0483.

Question: What about the melting temperature ([2]; cell cycle stage: G1/S) of the same sequence?
Answer: The melting temperature was 48.9 °C.

Question: What about the melting temperature ([2]; cell cycle stage: mitosis) of the same sequence?
Answer: Its melting temperature is 49.8 °C.

Question: And the thermal stability score [3, 5]?
Answer: Its thermal stability score is 0.924.

Question: What about the thermal stability score ([3]; cell cycle stage: mitosis) of the same sequence?
Answer: Its thermal stability score is 1.13.

Question: What about the “solubility change mitosis (log2)” value [4] of the same sequence?
Answer: The value was -0.134.

Question: “MSDVAIVKEGWLHKRGEYIKTWRPRYFLLKNDGTFIGYKERPQDVDQREAPLNNFSVAQCQLMKTERPRPNTFIIRCLQWTTVIERTFHVETPEEREEWTTAIQTVADGLKKQEEEEMDFRSGSPSDNSGAEEMEVSLAKPKHRVTMNEFEYLKLLGKGTFGKVILVKEKATGRYYAMKILKKEVIVAKDEVAHTLTENRVLQNSRHPFLTALKYSFQTHDRLCFVMEYANGGELFFHLSRERVFSEDRARFYGAEIVSALDYLHSEKNVVYRDLKLENLMLDKDGHIKITDFGLCKEGIKDGATMKTFCGTPEYLAPEVLEDNDYGRAVDWWGLGVVMYEMMCGRLPFYNQDHEKLFELILMEEIRFPRTLGPEAKSLLSGLLKKDPKQRLGGGSEDAKEIMQHRFFAGIVWQHVYEKKLSPPFKPQVTSETDTRYFDEEFTAQMITITPPDQDDSMECVDSERRPHFPQFSYSASGTA [AKT1]” was tested. Which “solubility in G1/S (log2)” value [1] did it give?
Answer: Its value is -0.0128.

Question: And the melting temperature ([2]; cell cycle stage: G1/S)?
Answer: The melting temperature was 50.6 °C.

Question: What about the melting temperature ([2]; cell cycle stage: mitosis) of the same sequence?
Answer: Its melting temperature is 49.9 °C.

Question: What about the thermal stability score [3, 5] of the same sequence?
Answer: The thermal stability score was 1.05.

Question: What about the thermal stability score ([3]; cell cycle stage: mitosis) of the same sequence?
Answer: The thermal stability score was 0.255.

Question: What about the “solubility change mitosis (log2)” value [4] of the same sequence?
Answer: The value was -0.0505.

Question: Which results are given for “MVRSGNKAAVVLCMDVGFTMSNSIPGIESPFEQAKKVITMFVQRQVFAENKDEIALVLFGTDGTDNPLSGGDQYQNITVHRHLMLPDFDLLEDIESKIQPGSQQADFLDALIVSMDVIQHETIGKKFEKRHIEIFTDLSSRFSKSQLDIIIHSLKKCDISLQFFLPFSLGKEDGSGDRGDGPFRLGGHGPSFPLKGITEQQKEGLEIVKMVMISLEGEDGLDEIYSFSESLRKLCVFKKIERHSIHWPCRLTIGSNLSIRIAAYKSILQERVKKTWTVVDAKTLKKEDIQKETVYCLNDDDETEVLKEDIIQGFRYGSDIVPFSKVDEEQMKYKSEGKCFSVLGFCKSSQVQRRFFMGNQVLKVFAARDDEAAAVALSSLIHALDDLDMVAIVRYAYDKRANPQVGVAFPHIKHNYECLVYVQLPFMEDLRQYMFSSLKNSKKYAPTEAQLNAVDALIDSMSLAKKDEKTDTLEDLFPTTKIPNPRFQRLFQCLLHRALHPREPLPPIQQHIWNMLNPPAEVTTKSQIPLSKIKTLFPLIEAKKKDQVTAQEIFQDNHEDGPTAKKLKTEQGGAHFSVSSLAEGSVTSVGSVNPAENFRVLVKQKKASFEEASNQLINHIEQFLDTNETPYFMKSIDCIRAFREEAIKFSEEQRFNNFLKALQEKVEIKQLNHFWEIVVQDGITLITKEEASGSSVTAEEAKKFLAPKDKPSGDTAAVFEEGGDVDDLLDMI [XRCC5]”?
Answer: solubility in G1/S (log2) [1]: 0.0358; melting temperature ([2]; cell cycle stage: G1/S): 46.7 °C; melting temperature ([2]; cell cycle stage: mitosis): 48.1 °C; thermal stability score [3, 5]: 6.95; thermal stability score ([3]; cell cycle stage: mitosis): 12.5; solubility change mitosis (log2) [4]: -0.096
